Where “and” joins values, the source holds several entries; their conditions need not be identical. Equal values may be shown once.
Molecular target: viral influenza A/California/04/2009 (H1N1) neuraminidase (H1N1-NA) (Influenza A virus (A/California/04/2009(H1N1)), UniProt C3W5S3)
Experiment: biochemical

| SMILES | IC50 (IC50) | IC50 (IC50 (Viral)) |
| --- | --- | --- |
| CCC(CC)O[C@@H]1C=C(C(=O)O)C[C@H](N)[C@H]1NC(C)=O [oseltamivir carboxylate, reference compound] | ~10 nM | 10.2 nM and 10 nM |
| CC(=O)N[C@H]1[C@H]([C@H](O)[C@H](O)CO)OC(C(=O)O)=C[C@@H]1N=C(N)N [zanamivir, 2,4-dideoxy-2,3-didehydro-4-guanidino-N-acetylneuraminic acid, reference compound] | ~10 nM | 11.1 nM and 10 nM |

— paper PMC6150325 (Molecules : A Journal of Synthetic Chemistry and Natural …, 2017)
